# Measured affinities in a library of Ab-14 light chain variants

The target is the same throughout: PDVDLGDISGINAS, from the HR2 region of SARS-CoV-2 spike.

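The starting antibody came from a phage panning campaign against this peptide. This is the validation round: designs drawn from the data on random variants, tested in the same kind of assay. Several design methods are mixed in this list. The scFvs were displayed on barcoded MATa yeast, the peptide on MATalpha yeast. After mating in shaken culture at 30 °C for 16 h, diploids were selected and their barcode pairs sequenced. Scores were corrected for input abundance and mapped to Kd with protein pairs of known affinity run in the same pool. Each pool was mated in six replicate cultures.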

Each scFv is VH, a (GGGGS)3 linker, VL, as in the parent Ab-14, and differs from it in the CDRs of the light chain only.
VH: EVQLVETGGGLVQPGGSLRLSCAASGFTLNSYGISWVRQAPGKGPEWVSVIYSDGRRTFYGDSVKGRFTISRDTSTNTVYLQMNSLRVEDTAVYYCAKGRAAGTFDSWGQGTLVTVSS
VL: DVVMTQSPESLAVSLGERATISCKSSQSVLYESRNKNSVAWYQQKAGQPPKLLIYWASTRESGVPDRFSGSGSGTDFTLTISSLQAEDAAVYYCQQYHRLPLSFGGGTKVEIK

Variants are written as CDR1, CDR2 and CDR3 of the light chain (limits as in the source). Parent: KSSQSVLYESRNKNSVA, WASTRES, QQYHRLPLS. The read-out is the apparent dissociation constant on a log10 scale (nM): the lower, the stronger. Replicates are averaged; those with no signal do not enter the mean. Where no diploid with the target was found in any replicate, the entry reads "no signal": below detection, most likely a poor binder, though not proof of it.

CDR-L1	CDR-L2	CDR-L3	log10 Kd (nM), mean	replicates with signal
QLDWYNSTATASANSVA	DVAQRMN	QQYMRLPLM	1.09	6/6
KSSQSVLYESRTQNNVA	GASTRCS	QQYHRLPLY	0.74	6/6
KLRQSTLYESRNKNSVA	TASTRLS	QQYHRLPLS	1.14	6/6
KLAMYLEMNARTIHAIA	EANLKTS	QQYNRLPIS	no signal	0/6
KVEMSVDYEDRNKNSVA	HASVRES	QQYHRLPLS	-0.16	6/6
KMSQSVLYESRNKNSVA	WASTRES	QQYHRLPLE	0.69	6/6
TLMHHQDRYDNWKKSIA	EAIIRES	QQYSRLPLA	1.34	6/6
KSSQSVLYEQRNKNSVA	WASTRES	QQYHRLPES	1.46	1/6
KSSQSVMGEQRNKNSVA	DASTRES	QQYHRLPLS	-0.15	6/6
KLKELFNMWARAQGNVA	DATERCT	QQYSRLPIT	0.77	5/6
TISQMSTLFSQSINNVA	EVSTRLN	QQYDRLPLS	1.18	6/6
VFPEHELMLESEIRSIA	NATKRME	QQYFRLPLV	0.36	6/6
KISPSVLYESRNKNSVA	WASTRES	QQYHRLPLS	-0.07	6/6
KLSQSFLYESMNKNSVA	HASQRIW	QQYHRLPLS	0.49	6/6
TIQMFLDNLYHNRNNVA	DTSTLGS	QSYDRLPLS	0.98	6/6
IISGIMLMESRNKNSVA	NAETREY	QHYDRLPLS	2.56	1/6
KISQMVKVGSTLSNSIA	EEVTRAK	QQYHRLPLA	1.09	6/6
KYSQSVLYESTNKNSVA	WASTRES	QQYHRNPLS	no signal	0/6
KLSQSVGYESRNKNSVA	NASTRED	QQYHRLPLS	-0.10	6/6
KVSQSVLVGDRNKSSVA	QASTREM	QQYHRLPLS	0.69	6/6
KSSQSVLYESRNKNSVA	WAFTRMS	QQYHRLPLS	no signal	0/6
KSGGGVLYESRNKNSVA	GASTRES	QQYHRLPLS	0.18	6/6
KLSASQLYESRVSNAVA	NASTRMM	QQYHRLPLS	-0.18	6/6
KSSQSVLYESRNKNSVA	KASTRES	QDYHRLPLS	1.62	6/6
KLTKYQYNATSHYQNVA	ESNKVME	QSYYRLPLS	2.06	2/6
KSYQSVLYESVMPNSVA	WASTRSS	GQYHRLPLS	no signal	0/6
KQSQSVLYESVNKNSVA	DASTRET	QQYHRLPLS	0.13	6/6
HMSMLTLSGMYQRNSVA	QMTTREN	QQYDRLPLS	2.11	5/6
KLYEAGEESSKVDRSIA	EMSTRQE	QQYQRLPLS	1.39	6/6
KLSYSNLYESRNKNSVA	NASTRCQ	QQYHRLPLS	0.12	6/6
KWSQSVLYESRNLNSVA	WASTREA	QVYHRLPLS	1.46	1/6
KVSQSVLYESRTKNSVA	NASTRES	QQGHRLPLS	1.83	1/6
KLSQSQLYESRNKNNVA	NASTRCS	QQYHRLPLS	-0.23	6/6
KVSISYLEESRNKNSVA	EASTRES	QQYHRLPLS	-0.07	6/6
KLSQYVGGETRNKSSLA	DNNTRES	QQYERLPLS	2.70	3/6
KMEQGVLYESRNKGSVA	GASTRES	QQYHRLPLS	-0.21	6/6
KLYYDAAQRVMDAENIA	EKTESYQ	QQYHRLPLS	no signal	0/6
KLEWSQLYESRNCNSVA	NASTRES	QQYWRLPLS	0.65	6/6
KLSQSVQYESRQKNSVA	NASTRES	QQYHRLPLS	0.02	6/6
KIGMTLNQLMHQKQNVA	DLVTREN	QQYHRLPLS	0.18	6/6
KSSQSVTFESRNKNSVA	DASTRES	QQYHRLPLS	0.04	6/6
NMQMQQDRMQDAKQNIA	GVDMREE	QQYFRLPFL	0.11	6/6
IFSQSVLMGNLTKNSVA	QASTRFK	QQYHRLPLI	no signal	0/6
NFEMFDGMLNMYASSIA	NAHCLVQ	QQYGRLPIS	2.02	6/6
KLSQSVLYLSRNKNSVA	EASTRES	QQYHRLPLS	-0.15	6/6
QLQQVQQEDTIGEYSVA	HAEVSGR	QQYSQLPLI	3.06	1/6
KSSQSVEYESRNKNSVA	HASTREH	QQYHRLPLS	1.08	6/6
KLSIFHQVNSINKSNVA	EMVTRES	QQYDRLPLS	1.19	6/6
KSSQSVLFESRNKNSVK	DASTRES	QQYHRLPKS	2.36	1/6
KLSQSWLYESRNKNNVA	EASQRES	QQYHRLPLS	-0.36	6/6
KFSQSGLYESRNKNSVA	WASTRES	QQAHRLPLS	2.42	4/6
ALSQSVGGESRNPNSVA	HASTRER	QQYHRLPLS	0.58	6/6
KLSQHVGYESRNKSRVA	DNSTRES	QQYDRLPLS	2.33	1/6
KLASVTGTEKVHGNNVA	EMETREK	QQYNRLPLA	0.17	6/6
KFFGGIPEQERDDYSIA	MGTLRET	QQYQRLPLS	1.19	5/6
KSPQSVQYESRNKNSVA	EASTGED	NQYFILPLS	1.85	2/6
KCSQSVLYESNNKNSVA	WASDRES	PQYHRLPLS	2.04	4/6
KLAMYLEMNARTIHAIA	EANLKPS	QQYNRLPFS	2.28	4/6
YSSQSVLMESRNKNSVA	GASTREW	QQYHRLPLS	1.02	6/6
KQSQSVLYESRNKNSVA	WASTRES	QQYHRLPCW	1.85	3/6
KSSQSVLYESRDKNSVA	WASTRES	FQYHHLPLS	2.31	2/6
KSSQSVLYESRNKNSGA	WASTRES	QQYHRLPLK	no signal	0/6
KSSISFLYESRMKNSVA	EASTRES	QQYHRLPLS	-0.14	6/6
KLSQSVCYEDRQKNSVA	NASTRMS	QQYHRLKLS	2.00	6/6
HITMGMYVKGRHHSSIA	QAETRAY	QQYDRLPLI	1.74	6/6
KVYPSYLYESRNKNSVA	QASTRES	QQYHRLPLS	0.11	6/6
KSSQSVLYESRNKNSVA	AASTRES	QQYSRLPLS	no signal	0/6
KLSQSELYESRWKNSVA	NASQRES	QQYHRLPLS	0.30	6/6
TISQMSTLFSQSINNVA	EVSTREQ	QQYDRLPLM	0.42	6/6
HVAMLLGQQHGKQANVA	EADELMT	QQYYTLPLA	0.23	6/6
KSSQSVLYESRNKNSVA	QASTRES	QAYHRNPLS	0.52	6/6

The 11 strongest on average among those seen in every replicate, once more:

CDR-L1,CDR-L2,CDR-L3,"log10 Kd (nM), mean",replicates with signal
KLSQSWLYESRNKNNVA,EASQRES,QQYHRLPLS,-0.36,6/6
KLSQSQLYESRNKNNVA,NASTRCS,QQYHRLPLS,-0.23,6/6
KMEQGVLYESRNKGSVA,GASTRES,QQYHRLPLS,-0.21,6/6
KLSASQLYESRVSNAVA,NASTRMM,QQYHRLPLS,-0.18,6/6
KVEMSVDYEDRNKNSVA,HASVRES,QQYHRLPLS,-0.16,6/6
KSSQSVMGEQRNKNSVA,DASTRES,QQYHRLPLS,-0.15,6/6
KLSQSVLYLSRNKNSVA,EASTRES,QQYHRLPLS,-0.15,6/6
KSSISFLYESRMKNSVA,EASTRES,QQYHRLPLS,-0.14,6/6
KLSQSVGYESRNKNSVA,NASTRED,QQYHRLPLS,-0.10,6/6
KVSISYLEESRNKNSVA,EASTRES,QQYHRLPLS,-0.07,6/6
KISPSVLYESRNKNSVA,WASTRES,QQYHRLPLS,-0.07,6/6

The authors averaged sequences with at least three values out of six and counted those with two or fewer as poor binders. Background: pairings of all light chain designs with three empty control strains gave a value in 4% of cases (median 2.64, 5th percentile 1.59). Values in that range, when seen in few replicates, are hard to tell from nonspecific mating. Of ten entries with the parent sequence, four were seen in most replicates (averages 0.34 to 2.37), three in one and three in none, so single entries are noisy. A sequence measured in both rounds can read differently, since the two assays cover different ranges.

Reference: Li et al. 2023, doi:10.1038/s41467-023-39022-2. File: FLAb, binding data.